Test results published in patent publication US10308689B2, “Dengue virus (DV) polypeptide sequences, T cell epitopes and methods and uses thereof” (LA JOLLA INSTITUTE FOR ALLERGY AND IMMUNOLOGY, priority 2010, dated 2019).

Test system: PBMC of healthy adult blood donors from Colombo, Sri Lanka
Assay: Ex vivo IFNγ ELISPOT, HLA-matched PBMC of Sri Lankan blood donors
Format: cell-based, human
Details: ex vivo IFNγ ELISPOT
[1] = donors expressing HLA B*4001 (supertype B44)
[2] = donors expressing HLA B*0702 (supertype B7)
[3] = donors expressing HLA B*3501 (supertype B7)
[4] = donors expressing HLA A*1101 (supertype A3)

C[C@@H](O)[C@H](NC(=O)[C@H](Cc1ccccc1)NC(=O)[C@H](CS)NC(=O)[C@H](Cc1c[nH]c2ccccc12)NC(=O)[C@H](CCC(=O)O)NC(=O)[C@@H](N)CCCNC(=N)N)C(=O)NCC(=O)N[C@@H](CCC(=O)O)C(=O)N[C@@H](CCCNC(=N)N)C(=O)N[C@@H](CC(N)=O)C(=O)O
T cell response [SFC] [1]: 48 SFC

CC(C)C[C@H](NC(=O)[C@H](CCC(=O)O)NC(=O)[C@H](CC(C)C)NC(=O)[C@H](CCCCN)NC(=O)CNC(=O)[C@H](CC(C)C)NC(=O)[C@H](Cc1c[nH]cn1)NC(=O)[C@H](Cc1c[nH]c2ccccc12)NC(=O)[C@@H]1CCCN1C(=O)CN)C(=O)O
T cell response [SFC] [2]: 53 SFC

CSCC[C@H](NC(=O)[C@H](CCSC)NC(=O)[C@H](CC(C)C)NC(=O)[C@@H](N)CS)C(=O)N[C@@H](CCSC)C(=O)N[C@@H](CC(C)C)C(=O)N1CCC[C@H]1C(=O)N[C@@H](C)C(=O)N[C@H](C(=O)N[C@@H](CC(C)C)C(=O)O)[C@@H](C)O
T cell response [SFC] (donors expressing HLA A*0201 (supertype A2)): 63 SFC

CC(C)C[C@H](NC(=O)[C@H](Cc1c[nH]c2ccccc12)NC(=O)[C@@H](NC(=O)[C@@H]1CCCN1C(=O)[C@@H](N)CC(C)C)C(C)C)C(=O)N[C@@H](C)C(=O)N[C@@H](Cc1ccc(O)cc1)C(=O)N[C@@H](CCCCN)C(=O)N[C@H](C(=O)N[C@@H](C)C(=O)O)C(C)C
T cell response [SFC] [3]: 27 SFC

CC(C)C[C@H](NC(=O)[C@H](CC(C)C)NC(=O)CNC(=O)CNC(=O)[C@H](C)NC(=O)[C@@H](NC(=O)[C@H](CC(C)C)NC(=O)[C@@H]1CCCN1C(=O)CN)C(C)C)C(=O)O
T cell response [SFC] [2]: 35 SFC

CSCC[C@H](NC(=O)CNC(=O)[C@H](CCCCN)NC(=O)[C@H](CC(C)C)NC(=O)[C@H](C)NC(=O)[C@H](CCC(=O)O)NC(=O)[C@H](C)NC(=O)[C@H](CCSC)NC(=O)[C@H](CCC(=O)O)NC(=O)[C@@H](N)CO)C(=O)O
T cell response [SFC] [1]: 120 SFC

CSCC[C@H](NC(=O)[C@@H](NC(=O)[C@H](Cc1ccc(O)cc1)NC(=O)[C@H](CO)NC(=O)[C@@H](N)CCSC)[C@@H](C)O)C(=O)N[C@@H](CS)C(=O)N[C@@H](CO)C(=O)NCC(=O)N[C@@H](CCCCN)C(=O)O
T cell response [SFC] [4]: 48 SFC

CSCC[C@H](NC(=O)[C@H](Cc1ccc(O)cc1)NC(=O)[C@@H]1CCCN1C(=O)[C@H](CC(N)=O)NC(=O)[C@H](CC(C)C)NC(=O)[C@@H](N)C(C)C)C(=O)N1CCC[C@H]1C(=O)N[C@@H](CO)C(=O)N[C@H](C(=O)O)C(C)C
T cell response [SFC] (donors expressing A*0201): 987 SFC

CC[C@H](C)[C@H](NC(=O)[C@H](CCC(=O)O)NC(=O)[C@@H](N)CCCNC(=N)N)C(=O)N1CCC[C@H]1C(=O)N[C@@H](CCC(=O)O)C(=O)N[C@@H](CCCNC(=N)N)C(=O)N[C@@H](CO)C(=O)N[C@@H](Cc1c[nH]c2ccccc12)C(=O)N[C@@H](CC(N)=O)C(=O)N[C@H](C(=O)O)[C@@H](C)O
T cell response [SFC] [1]: 93 SFC

CC[C@H](C)[C@H](NC(=O)[C@H](C)NC(=O)CNC(=O)[C@H](CO)NC(=O)[C@@H](N)CCCCN)C(=O)N[C@@H](CCCCN)C(=O)N[C@H](C(=O)N[C@@H](CC(C)C)C(=O)N[C@@H](CCCCN)C(=O)O)C(C)C
T cell response [SFC] [4]: 823 SFC

CC[C@H](C)[C@H](NC(=O)[C@@H]1CCCN1C(=O)CNC(=O)[C@@H](NC(=O)[C@H](C)N)[C@@H](C)O)C(=O)N[C@@H](CC(C)C)C(=O)N[C@H](C(=O)N[C@@H](CC(C)C)C(=O)N[C@@H](Cc1c[nH]c2ccccc12)C(=O)O)[C@@H](C)O
T cell response [SFC] (donors expressing HLA B*5801 (supertype B58)): 27 SFC

CC[C@H](C)[C@H](NC(=O)[C@H](CO)NC(=O)[C@H](CC(C)C)NC(=O)[C@H](C)NC(=O)[C@@H](N)CCSC)C(=O)N[C@H](C(=O)N[C@@H](CO)C(=O)N[C@@H](CC(C)C)C(=O)N[C@@H](Cc1ccccc1)C(=O)O)C(C)C
T cell response [SFC] (donors expressing HLA B*5101 (supertype B7)): 340 SFC

CC[C@H](C)[C@H](NC(=O)[C@H](CO)NC(=O)[C@H](C)NC(=O)[C@@H]1CCCN1C(=O)[C@@H](N)CC(=O)O)C(=O)N[C@@H](C)C(=O)N[C@@H](C)C(=O)N[C@@H](CCCNC(=N)N)C(=O)NCC(=O)N[C@@H](Cc1ccc(O)cc1)C(=O)O
T cell response [SFC] [3]: 183 SFC
